Reference: patent publication US9079913B2, “Spiro-oxindole MDM2 antagonists” (The Regents of the University of Michigan, priority 2009, dated 2015)

Tested on: SJSA-1 xenograft tumors
Test: In vivo efficacy, SJSA-1 xenograft model (tumor volume)
Conditions: oral once per day 2-3 weeks

SMILES: CC(C)(C)C[C@H]1N[C@@H](C(=O)N[C@H]2C[C@@](C)(O)C2)[C@H](c2cccc(Cl)c2F)[C@@]12C(=O)Nc1cc(Cl)ccc12 [MI-519-64]
- in vivo efficacy (in words): good in vivo efficacy

SMILES: CC(C)(C)C[C@H]1N[C@@H](C(=O)N[C@H]2C[C@@H](O)C2)[C@H](c2cccc(Cl)c2F)[C@@]12C(=O)Nc1cc(Cl)ccc12 (stereo in doubt) [MI-519-63]
- in vivo efficacy (in words): good in vivo efficacy
